Results taken from publication PMC9160101 (Pharmaceutical Research, 2022).
Where two headings read alike, the source gives them in different places.

Sequences of proteins named here, by UniProt entry; tags and fusion partners are left off.
UniProt P11712, whole entry: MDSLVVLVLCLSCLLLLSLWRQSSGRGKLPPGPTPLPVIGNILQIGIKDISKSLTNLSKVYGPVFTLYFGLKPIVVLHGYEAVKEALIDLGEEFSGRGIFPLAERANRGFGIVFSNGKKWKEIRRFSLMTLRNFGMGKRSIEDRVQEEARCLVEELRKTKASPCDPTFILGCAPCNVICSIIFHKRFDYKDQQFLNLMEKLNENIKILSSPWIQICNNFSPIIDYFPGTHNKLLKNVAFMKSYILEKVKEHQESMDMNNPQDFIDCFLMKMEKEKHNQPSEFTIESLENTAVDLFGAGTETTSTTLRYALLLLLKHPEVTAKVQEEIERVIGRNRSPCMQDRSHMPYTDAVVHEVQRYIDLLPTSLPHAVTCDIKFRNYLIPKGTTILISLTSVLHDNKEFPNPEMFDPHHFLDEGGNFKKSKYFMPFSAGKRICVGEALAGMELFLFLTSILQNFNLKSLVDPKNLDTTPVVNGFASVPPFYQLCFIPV
UniProt P33261, whole entry: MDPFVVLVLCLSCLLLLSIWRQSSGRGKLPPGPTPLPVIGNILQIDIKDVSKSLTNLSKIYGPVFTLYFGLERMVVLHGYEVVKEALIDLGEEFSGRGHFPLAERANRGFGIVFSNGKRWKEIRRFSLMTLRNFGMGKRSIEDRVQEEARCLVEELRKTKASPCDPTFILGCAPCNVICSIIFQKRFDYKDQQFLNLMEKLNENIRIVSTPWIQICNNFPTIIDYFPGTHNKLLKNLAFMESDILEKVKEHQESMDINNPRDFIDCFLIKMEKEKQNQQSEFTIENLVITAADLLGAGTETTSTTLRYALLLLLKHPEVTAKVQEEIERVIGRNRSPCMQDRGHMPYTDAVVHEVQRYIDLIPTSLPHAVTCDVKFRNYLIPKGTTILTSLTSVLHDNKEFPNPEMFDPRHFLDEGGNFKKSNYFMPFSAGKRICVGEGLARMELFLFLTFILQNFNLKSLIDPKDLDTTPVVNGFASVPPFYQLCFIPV

What was measured:
human liver homogenates = conditions: ulotaront 10 µM, 240 min
CYP2C9 = CYP2C9 (Homo sapiens, UniProt P11712); assay: CYP inhibition in HLM
human MATE1 = biological target: T1, human MATE1 (Homo sapiens, UniProt Q96FL8); assay: Transporter inhibition, transfected HEK293 cells; conditions: 50 µM
T1 sequence (Q96FL8 1-570): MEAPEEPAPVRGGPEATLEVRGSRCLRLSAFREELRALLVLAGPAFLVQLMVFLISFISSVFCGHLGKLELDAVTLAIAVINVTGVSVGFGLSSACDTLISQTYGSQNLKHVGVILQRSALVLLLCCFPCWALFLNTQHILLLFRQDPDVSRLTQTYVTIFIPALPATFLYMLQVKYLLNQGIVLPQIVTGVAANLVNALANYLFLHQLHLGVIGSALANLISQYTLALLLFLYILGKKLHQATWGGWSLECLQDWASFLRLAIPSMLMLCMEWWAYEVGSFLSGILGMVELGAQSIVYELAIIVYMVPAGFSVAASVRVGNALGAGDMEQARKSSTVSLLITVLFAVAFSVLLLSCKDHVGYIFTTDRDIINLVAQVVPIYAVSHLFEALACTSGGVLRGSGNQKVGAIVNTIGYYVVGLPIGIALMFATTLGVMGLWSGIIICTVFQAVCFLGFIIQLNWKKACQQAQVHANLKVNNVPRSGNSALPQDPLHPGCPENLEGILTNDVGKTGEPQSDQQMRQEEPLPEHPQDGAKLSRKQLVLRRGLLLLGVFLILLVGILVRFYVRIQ

[1] = mouse, in vivo, 10 mg/kg
CYP2B6 [2] = conditions: 0.3 to 100 µM, 3 donors, three days
[3] = test system: broad panel receptor screen; assay: In vitro broad panel receptor screen; conditions: internal data
human OAT3 = biological target: T2, human OAT3 (Homo sapiens, UniProt Q8TCC7); assay: Transporter inhibition, transfected HEK293 cells; conditions: 50 µM
T2 sequence (Q8TCC7 1-542): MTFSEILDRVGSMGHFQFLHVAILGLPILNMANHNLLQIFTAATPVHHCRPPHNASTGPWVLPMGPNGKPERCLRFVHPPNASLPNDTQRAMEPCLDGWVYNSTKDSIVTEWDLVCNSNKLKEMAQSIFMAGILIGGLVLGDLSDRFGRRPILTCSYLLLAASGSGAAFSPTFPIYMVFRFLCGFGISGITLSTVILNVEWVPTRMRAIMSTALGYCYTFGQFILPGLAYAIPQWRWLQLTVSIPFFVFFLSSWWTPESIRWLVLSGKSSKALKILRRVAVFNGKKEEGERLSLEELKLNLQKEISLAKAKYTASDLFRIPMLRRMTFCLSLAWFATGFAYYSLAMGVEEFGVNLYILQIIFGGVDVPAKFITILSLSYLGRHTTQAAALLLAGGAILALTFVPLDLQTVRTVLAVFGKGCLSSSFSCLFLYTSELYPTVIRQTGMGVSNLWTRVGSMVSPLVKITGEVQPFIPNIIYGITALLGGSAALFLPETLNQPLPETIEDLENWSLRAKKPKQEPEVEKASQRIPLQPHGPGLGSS

Caco-2 monolayers = assay: SEP-383103 permeability, Caco-2 monolayer system; format: in vitro ADME; conditions: 120 min
Procedure: Transport buffer was Hanks Balanced Salt Solution (HBSS) buffered with 10 mM HEPES (N-[2- Hydroxyethyl] piperazine-N’-[2-ethanesulfonic acid]), pH adjusted to 7.4 with NaOH. Receiver solution was prepared by adding 1% organic solvent to transport buffer. The monolayers were incubated on an orbital shaker at 37 °C, with ambient humidity and CO2 for the duration of the transport assay. Samples were collected after 45, 90, and 120 min incubations and concentrations were determined by liquid chromatography with tandem mass spectrometry (LC–MS/MS). SEP-383103 permeability study was conducted at Covance (Madison, Wisconsin) using the Caco-2 monolayer system. SEP-383103 (1 and 5 µM) was added to the apical and basolateral chambers to determine the permeability in the apical to basolateral (A to B), and basolateral to apical (B to A) directional, respectively. Samples were collected after a 120-min incubation at 37 °C, and concentrations were determined by LC–MS/MS.

CYP1A2 = conditions: 0.3 to 100 µM, 3 donors, three days
CYP2B6 [4] = biological target: T3, CYP2B6 (Homo sapiens, UniProt P20813); conditions: HLM
T3 sequence (P20813 1-491): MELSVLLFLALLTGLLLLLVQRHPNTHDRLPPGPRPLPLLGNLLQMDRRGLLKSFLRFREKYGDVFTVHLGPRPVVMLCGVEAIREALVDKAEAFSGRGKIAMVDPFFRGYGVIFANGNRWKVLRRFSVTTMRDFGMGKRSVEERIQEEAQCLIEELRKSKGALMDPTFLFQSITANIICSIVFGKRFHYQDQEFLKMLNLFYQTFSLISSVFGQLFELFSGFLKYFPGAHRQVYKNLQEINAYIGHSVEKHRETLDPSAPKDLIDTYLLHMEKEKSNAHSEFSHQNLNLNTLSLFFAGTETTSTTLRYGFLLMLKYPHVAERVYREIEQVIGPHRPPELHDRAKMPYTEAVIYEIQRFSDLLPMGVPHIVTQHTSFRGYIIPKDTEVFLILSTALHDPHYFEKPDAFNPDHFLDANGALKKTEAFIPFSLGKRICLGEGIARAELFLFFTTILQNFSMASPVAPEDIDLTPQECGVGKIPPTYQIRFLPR

CYP2C19 = CYP2C19 (Homo sapiens, UniProt P33261); assay: CYP inhibition in HLM
[5] = 30 min preincubation without and with NADPH

NCC1OCCc2ccsc21 (centres unmarked) [SEP-363854]
metabolite formation in presence vs absence of NADPH (human liver homogenates): predominately formed in the presence of NADPH

O=C(O)[C@@H]1OCCc2ccsc21 [SEP-383103]
time-dependent inhibition (CYP3A4/5): did not show direct or time dependent inhibition | direct inhibition (CYP2C9; 0.1 to 100 µM): did not show direct or time dependent inhibition | time-dependent inhibition (CYP2C9; [5]): did not show direct or time dependent inhibition | inhibition (human MATE1): ~ 20% | AUCinf B/P ratio ([1]; ip): 0.03 | AUCinf B/P ratio ([1]; po): 0.04 | induction of mRNA expression or enzymatic activity (CYP2B6 [2]): did not induce | activity in broad panel receptor screen [3]: no significant activities | inhibition (human OAT3): ~ 35% | efflux ratio (Caco-2 monolayers; 1 µM): 1.2 | mean permeability A-B (Caco-2 monolayers; 1 µM): 2.3 × 10^–6 cm/sec | mean permeability B-A (Caco-2 monolayers; 1 µM): 2.7 × 10^–6 cm/sec | efflux ratio (Caco-2 monolayers; 5 µM): 1.9 | mean permeability A-B (Caco-2 monolayers; 5 µM): 1.3 × 10^–6 cm/sec | mean permeability B-A (Caco-2 monolayers; 5 µM): 2.4 × 10^–6 cm/sec | induction of mRNA expression or enzymatic activity (CYP1A2): did not induce | direct inhibition (CYP2B6 [4]; 0.1 to 100 µM): did not show direct or time dependent inhibition | time-dependent inhibition (CYP2B6 [4]; [5]): did not show direct or time dependent inhibition | direct inhibition (CYP2C19; 0.1 to 100 µM): did not show direct or time dependent inhibition | time-dependent inhibition (CYP2C19; [5]): did not show direct or time dependent inhibition

NNCCc1ccccc1 [phenelzine]
inhibition of SEP-363854 formation (human liver homogenates; phenelzine 10 µM, no NADPH): 20% | inhibition of SEP-383103 formation (human liver homogenates; phenelzine 10 µM, no NADPH): 51%
